Chains of the proteins cited; added tags and fusions are not shown.
UniProt P98170, whole entry: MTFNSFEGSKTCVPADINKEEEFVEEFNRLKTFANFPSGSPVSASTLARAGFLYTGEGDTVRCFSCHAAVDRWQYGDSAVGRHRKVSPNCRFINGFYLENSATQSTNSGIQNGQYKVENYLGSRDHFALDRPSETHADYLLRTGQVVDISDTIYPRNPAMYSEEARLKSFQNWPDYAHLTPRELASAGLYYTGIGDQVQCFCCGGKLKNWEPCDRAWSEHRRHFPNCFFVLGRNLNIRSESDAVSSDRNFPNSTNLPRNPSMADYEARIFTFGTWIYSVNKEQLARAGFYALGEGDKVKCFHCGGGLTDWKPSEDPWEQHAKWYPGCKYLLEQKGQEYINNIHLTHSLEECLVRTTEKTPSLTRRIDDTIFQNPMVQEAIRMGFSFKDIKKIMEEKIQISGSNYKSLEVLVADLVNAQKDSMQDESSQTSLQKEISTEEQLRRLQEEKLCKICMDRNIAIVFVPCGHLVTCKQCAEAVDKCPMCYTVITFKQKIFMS

The molecules below were run against E3 ubiquitin-protein ligase XIAP (Homo sapiens, UniProt P98170).
In the case of `CN[C@@H](C)C(=O)N[C@H]1CN(C(=O)CCC[N+](=O)[O-])c2ccccc2N(Cc2c(OC)ccc3cc(Br)ccc23)C1=O`, the IC50 is reported as over 54.8 µM.
`CN[C@@H](C)C(=O)N[C@H]1CN(C(=O)c2ccc(N)cc2)c2ccccc2N(Cc2c(OC)ccc3cc(Br)ccc23)C1=O` was tested, and the IC50 was 22.1 µM.
For `CN[C@@H](C)C(=O)N[C@H]1CN(C(=O)c2ccc(C#N)cc2)c2ccccc2N(Cc2c(OC)ccc3cc(Br)ccc23)C1=O`, the IC50 was 42.8 µM.
With `CN[C@@H](C)C(=O)N[C@H]1CN(C(=O)c2ccc(C(O)(O)C(F)(F)F)cc2)c2ccccc2N(Cc2c(OC)ccc3cc(Br)ccc23)C1=O` the IC50 was over 54.8 µM.
`CN[C@@H](C)C(=O)N[C@H]1CN(C(=O)c2ccc(Cl)cc2)c2ccccc2N(Cc2c(C)ccc3ccccc23)C1=O` showed an IC50 of 32.8 µM.
For `CN[C@@H](C)C(=O)N[C@H]1CN(C(=O)c2ccc(C(N)=O)cc2)c2ccccc2N(Cc2c(OC)ccc3cc(Br)ccc23)C1=O`, the IC50 was 52.7 µM.
For `CN[C@@H](C)C(=O)N[C@H]1CN(C(=O)c2ccc(C(=O)NCC3CCCCC3)cc2)c2ccccc2N(Cc2c(OC)ccc3cc(Br)ccc23)C1=O`, the IC50 was over 54.8 µM.
Molecule `CN[C@@H](C)C(=O)N[C@H]1CN(C(=O)CC(C)C)c2ccccc2N(Cc2ccccc2OC)C1=O` has an IC50 of over 54.8 µM.
In the case of `COc1ccc2cc(Br)ccc2c1CN1C(=O)[C@@H](NC(=O)[C@H](C)N(C)C)CN(C(=O)c2ccc(C(C)=O)cc2)c2ccccc21`, the IC50 is reported as over 54.8 µM.

Reference: ChEMBL document CHEMBL5725471, “Tetrahydro-benzodiazepinones” (2018)
